Experimental data taken from ChEMBL document CHEMBL2163217, “A straightforward approach for engineering efficacy and selectivity at GPCRs” (J Med Chem, 2012).
The source made the active and inactive calls. The calls are words filed in the database; no cut-off is given here.

Sequences of proteins named here, by UniProt entry; tags and fusion partners are left off.
UniProt P14416, whole entry: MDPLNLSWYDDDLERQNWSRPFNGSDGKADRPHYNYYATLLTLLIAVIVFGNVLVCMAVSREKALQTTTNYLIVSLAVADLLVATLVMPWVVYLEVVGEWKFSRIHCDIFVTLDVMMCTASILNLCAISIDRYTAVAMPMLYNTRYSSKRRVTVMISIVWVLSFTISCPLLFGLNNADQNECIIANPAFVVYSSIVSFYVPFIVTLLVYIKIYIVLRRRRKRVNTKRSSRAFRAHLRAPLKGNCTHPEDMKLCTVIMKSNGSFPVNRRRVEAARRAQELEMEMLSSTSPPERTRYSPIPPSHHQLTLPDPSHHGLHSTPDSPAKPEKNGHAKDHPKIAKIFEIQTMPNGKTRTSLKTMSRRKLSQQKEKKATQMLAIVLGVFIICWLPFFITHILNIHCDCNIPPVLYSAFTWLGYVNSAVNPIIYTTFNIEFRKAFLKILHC
UniProt P35462, whole entry: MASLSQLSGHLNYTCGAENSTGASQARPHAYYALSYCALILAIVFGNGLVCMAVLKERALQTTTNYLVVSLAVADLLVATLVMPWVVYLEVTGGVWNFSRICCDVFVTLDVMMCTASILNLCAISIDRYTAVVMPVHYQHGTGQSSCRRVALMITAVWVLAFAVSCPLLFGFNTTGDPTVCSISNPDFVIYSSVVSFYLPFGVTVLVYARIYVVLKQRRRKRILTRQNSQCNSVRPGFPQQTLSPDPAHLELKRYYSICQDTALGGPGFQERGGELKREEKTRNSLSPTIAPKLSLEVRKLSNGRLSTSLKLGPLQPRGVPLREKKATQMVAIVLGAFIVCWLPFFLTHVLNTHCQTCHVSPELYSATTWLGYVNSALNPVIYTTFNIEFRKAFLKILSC

Legend:
Type in all cases: functional
[1] = biological target: D(2) dopamine receptor (Homo sapiens) (UniProt P14416); test: Partial agonist activity at D2 receptor
[2] = biological target: D(2) dopamine receptor (Homo sapiens) (UniProt P14416); test: Partial agonist activity at D2 receptor relative to control
[3] = biological target: D(3) dopamine receptor (Homo sapiens) (UniProt P35462); test: Partial agonist activity at D3 receptor relative to control

In the case of O=C(NCCCCN1CCN(c2cccc(Cl)c2Cl)CC1)c1cc2ccccc2[nH]1, the Activity [1] was “Active”, the Emax [2] was 8% and the Emax [3] was 8%.
